Chains of the proteins cited; added tags and fusions are not shown.
UniProt P9WHR9, whole entry: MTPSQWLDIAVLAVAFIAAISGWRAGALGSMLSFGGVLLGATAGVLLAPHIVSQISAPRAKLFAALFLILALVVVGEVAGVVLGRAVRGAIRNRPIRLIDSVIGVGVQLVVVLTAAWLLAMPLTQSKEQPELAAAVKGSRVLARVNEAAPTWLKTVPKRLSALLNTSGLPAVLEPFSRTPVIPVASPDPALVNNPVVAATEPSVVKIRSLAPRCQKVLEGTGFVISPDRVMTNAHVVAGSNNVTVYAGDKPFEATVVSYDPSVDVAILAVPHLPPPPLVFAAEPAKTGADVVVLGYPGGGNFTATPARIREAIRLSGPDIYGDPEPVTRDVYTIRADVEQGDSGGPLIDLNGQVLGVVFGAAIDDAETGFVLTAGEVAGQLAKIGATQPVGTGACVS

The list shows a part of the results, in another mix than the full data. Some of these compounds have results that are not shown, active ones among them. Activity calls are given as the source filed them. Cut-off read from the data, not from the text of the source: active = inhibition above about 38%; inactive = the rest.
These molecules were tested against Serine protease Rv3671c (Mycobacterium tuberculosis (strain ATCC 25618 / H37Rv)) (UniProt P9WHR9) (assay: Rv3671c serine protease inhibitors, primary screen, biochemical, fluorescence polarization, M. tuberculosis H37Rv (AID 2606;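 note: extracellular domain of Rv3671c used as enzyme; 0% = enzyme with DMSO and 100% = no enzyme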)). Details: at 5.96 µM; stronger effect = higher value.
With O=C(OC1CN2CCC1CC2)C(CO)(c1ccccc1)c1ccccc1 (centres undefined) the inhibition was inactive: 3.34%.
For COc1ccc(Br)c(C(=O)NCC2(N3CCCCC3)CCCCC2)c1, the inhibition was inactive: -4.48%.
CC(C)Oc1ccc(C(=O)NCC2(N(C)C)CCCCC2)cc1 was tested, and the inhibition was inactive: 3.81%.
In the case of CN(C)c1cccc(C(=O)NCC2(N(C)C)CCCCC2)c1, the inhibition is reported as inactive: -0.58%.
CN(C)C1(CNC(=O)c2ccc(Br)cc2)CCCCC1 was tested, and the inhibition was inactive: 5.3%.
With COc1cc(C(=O)NCC2(N(C)C)CCCCC2)c([N+](=O)[O-])cc1OC the inhibition was inactive: -20.2%.
COc1cccc(C(=O)NCC2(N3CCCCC3)CCCCC2)c1 was tested, and the inhibition was inactive: 2.19%.
COc1ccc(Cl)cc1C(=O)NCC1(N(C)C)CCCCC1 was tested, and the inhibition was inactive: 3.39%.
In the case of O=C(NCC1(N2CCCCC2)CCCCC1)c1cccc(Cl)c1, the inhibition is reported as inactive: -0.34%.
In the case of Cc1ccccc1C(=O)NCC1(N2CCCCC2)CCCCC1, the inhibition is reported as inactive: -10.8%.
In the case of CN(C)c1ccc(C(=O)NCC2(N(C)C)CCCCC2)cc1, the inhibition is reported as inactive: -3.72%.
With CN(C)C1CCCC1OC(=O)C(O)(c1ccccc1)c1ccccc1 (centres undefined) the inhibition was inactive: -1.18%.
For C=CCN1CCN(CCOC(=O)C(O)(c2ccccc2)c2ccccc2)CC1, the inhibition was inactive: -0.64%.
In the case of O=C(NCC1(N2CCCCC2)CCCCC1)c1cc(F)c(F)cc1Cl, the inhibition is reported as inactive: -0.79%.
In the case of COc1ccc(C(=O)NCC2(N(C)C)CCCCC2)cc1, the inhibition is reported as inactive: 0.17%.
CCN1CCCC(OC(=O)C2(O)c3ccccc3C=Cc3ccccc32)C1 (centres undefined) was tested, and the inhibition was inactive: 4.82%.
With Cc1cc(C(=O)NCC2(N3CCCCC3)CCCCC2)ccc1[N+](=O)[O-] the inhibition was inactive: 1.8%.
With O=C(NCC1(N2CCCCC2)CCCCC1)c1cccc(Br)c1 the inhibition was inactive: 1.02%.
With O=C(NCC1(N2CCCCC2)CCCCC1)c1cc([N+](=O)[O-])ccc1Cl the inhibition was inactive: -0.12%.
With CN1[C@@H]2CC[C@H]1CC(OC(=O)C(O)(c1ccccc1)c1ccccc1)C2 (some centres undefined) the inhibition was inactive: -6.4%.
For CCN(CC)CC(C)C(C)OC(=O)C(O)(c1ccccc1)c1ccccc1 (centres undefined), the inhibition was inactive: -2.87%.
In the case of COc1cc(SC)ccc1C(=O)NCC1(N(C)C)CCCCC1, the inhibition is reported as inactive: -0.7%.
In the case of CC(C)N1C(=O)CC2(CCN(CCOC(=O)C(O)(c3ccccc3)c3ccccc3)CC2)C1=O, the inhibition is reported as inactive: 4.77%.
With Cc1ccc(C(=O)NCC2(N3CCCCC3)CCCCC2)cc1 the inhibition was inactive: 1.11%.
